According to ChEMBL document CHEMBL3822453 (J Med Chem, 2016):
Active and inactive are the calls of the source. The calls are words filed in the database; no cut-off is given here.

Molecular target: T1, DNA repair protein RAD51 homolog 1 (Homo sapiens) (UniProt Q06609)
T1 sequence (whole entry): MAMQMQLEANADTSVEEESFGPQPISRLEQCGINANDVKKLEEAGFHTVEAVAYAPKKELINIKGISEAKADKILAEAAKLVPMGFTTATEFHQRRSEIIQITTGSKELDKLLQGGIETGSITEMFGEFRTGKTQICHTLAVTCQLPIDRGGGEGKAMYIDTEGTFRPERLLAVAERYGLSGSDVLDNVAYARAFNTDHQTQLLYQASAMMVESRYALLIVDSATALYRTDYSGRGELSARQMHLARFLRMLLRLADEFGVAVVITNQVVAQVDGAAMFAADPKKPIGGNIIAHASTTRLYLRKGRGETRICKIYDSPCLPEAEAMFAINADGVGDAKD
Assay: Inhibition of RAD51-mediated homologous recombination in human HEK293-DR-GFP cells transfected with pCBASce expressing I-Sce-I after 24 hrs following transfection by 7-aminoactinomycin D staining based flow cytometry
Assay type: cell-based

SMILES: Nc1ccc(-c2nc3cc(O)ccc3n3cccc23)cc1
- inhibition: Active
